Test results: PMC6278801

Key:
[1] = target: ANF-RGC R^802C mutant (rat) (UniProt P18910)
ANF-RGC ΔH1 mutant (rat) [2] = target: ANF-RGC ΔH1 mutant (rat) (UniProt P18910)
ANF-RGC ΔH2 mutant (rat) [3] = target: ANF-RGC ΔH2 mutant (rat) (UniProt P18910)
ANF-RGC ΔH3 mutant (rat) [4] = target: ANF-RGC ΔH3 mutant (rat) (UniProt P18910)
ANF-RGC ΔH4 mutant (rat) [5] = target: ANF-RGC ΔH4 mutant (rat) (UniProt P18910)
ANF-RGC ΔH5 mutant (rat) [6] = target: ANF-RGC ΔH5 mutant (rat) (UniProt P18910)
[7] = target: wild type Atrial Natriuretic Factor Receptor Guanylate Cyclase (rat) (UniProt P18910)
[8] = target: wild type Atrial Natriuretic Factor Receptor Guanylate Cyclase (rat) (UniProt P18910); remark: listed apart in the source
ANF-RGC ΔH1 mutant (rat) [9] = target: ANF-RGC ΔH1 mutant (rat) (UniProt P18910); remark: listed apart in the source
ANF-RGC ΔH2 mutant (rat) [10] = target: ANF-RGC ΔH2 mutant (rat) (UniProt P18910); remark: listed apart in the source
ANF-RGC ΔH3 mutant (rat) [11] = target: ANF-RGC ΔH3 mutant (rat) (UniProt P18910); remark: listed apart in the source
[12] = target: ANF-RGC R^802C mutant (rat) (UniProt P18910); remark: listed apart in the source
ANF-RGC ΔH4 mutant (rat) [13] = target: ANF-RGC ΔH4 mutant (rat) (UniProt P18910); remark: listed apart in the source
ANF-RGC ΔH5 mutant (rat) [14] = target: ANF-RGC ΔH5 mutant (rat) (UniProt P18910); remark: listed apart in the source

myristoylated neurocalcin δ (from UniProt P61602 1-193) (natural protein)
EC50 of myr-NCδ in modulating guanylate cyclase activity of COS cell membranes, 1 μM Ca^2+ [1]: 700 nM
EC50 of myr-NCδ in modulating guanylate cyclase activity of COS cell membranes, 1 μM Ca^2+ (ANF-RGC ΔH1 mutant (rat) [2]): 700 nM
EC50 of myr-NCδ in modulating guanylate cyclase activity of COS cell membranes, 1 μM Ca^2+ (ANF-RGC ΔH2 mutant (rat) [3]): 900 nM
EC50 of myr-NCδ in modulating guanylate cyclase activity of COS cell membranes, 1 μM Ca^2+ (ANF-RGC ΔH3 mutant (rat) [4]): 800 nM
EC50 of myr-NCδ in modulating guanylate cyclase activity of COS cell membranes, 1 μM Ca^2+ (ANF-RGC ΔH4 mutant (rat) [5]): 500 nM
EC50 of myr-NCδ in modulating guanylate cyclase activity of COS cell membranes, 1 μM Ca^2+ (ANF-RGC ΔH5 mutant (rat) [6]): 700 nM
EC50 of myr-NCδ in modulating guanylate cyclase activity of COS cell membranes, 1 μM Ca^2+ [7]: 500 nM
guanylate cyclase activity of COS cell membranes at increasing concentrations of myr-NCδ, 1 μM Ca^2+; highest value (basal 56; 5-fold) (pmol cGMP min^-1 (mg prot)^-1) [8]: 278
guanylate cyclase activity of COS cell membranes at increasing concentrations of myr-NCδ, 1 μM Ca^2+; highest value (basal 20; 5-fold) (pmol cGMP min^-1 (mg prot)^-1) (ANF-RGC ΔH1 mutant (rat) [9]): 105
guanylate cyclase activity of COS cell membranes at increasing concentrations of myr-NCδ, 1 μM Ca^2+; highest value (basal 19; ∼4-fold) (pmol cGMP min^-1 (mg prot)^-1) (ANF-RGC ΔH2 mutant (rat) [10]): 78
guanylate cyclase activity of COS cell membranes at increasing concentrations of myr-NCδ, 1 μM Ca^2+; highest value (basal 22; ∼5-fold) (pmol cGMP min^-1 (mg prot)^-1) (ANF-RGC ΔH3 mutant (rat) [11]): 109
guanylate cyclase activity of COS cell membranes at increasing concentrations of myr-NCδ, 1 μM Ca^2+; highest value (basal 24; ∼5-fold) (pmol cGMP min^-1 (mg prot)^-1) [12]: 124
guanylate cyclase activity of COS cell membranes at increasing concentrations of myr-NCδ, 1 μM Ca^2+; highest value (basal 105; ∼3.5-fold) (pmol cGMP min^-1 (mg prot)^-1) (ANF-RGC ΔH4 mutant (rat) [13]): 346
guanylate cyclase activity of COS cell membranes at increasing concentrations of myr-NCδ, 1 μM Ca^2+; highest value (basal 9; ∼4.5-fold) (pmol cGMP min^-1 (mg prot)^-1) (ANF-RGC ΔH5 mutant (rat) [14]): 40
